Values quoted from earlier work, collected in publication PMC10934121 (Molecules, 2024).

System: monoamine oxidase B
Settings: cited from earlier work

O=C1N=c2ccccc2=C1O [Isatin, 3-hydroxy-2H-indol-2-one]
Inhibition of monoamine oxidase B: potent inhibitor
